Source: ChEMBL document CHEMBL4118196, “Design and synthesis of a series of bioavailable fatty acid synthase (FASN) KR domain inhibitors for cancer therapy” (Bioorg Med Chem Lett, 2018)
pIC50: −log10 of the molar value.

The chains behind the UniProt entries cited, without tags or fusion partners.
UniProt P49327, whole entry: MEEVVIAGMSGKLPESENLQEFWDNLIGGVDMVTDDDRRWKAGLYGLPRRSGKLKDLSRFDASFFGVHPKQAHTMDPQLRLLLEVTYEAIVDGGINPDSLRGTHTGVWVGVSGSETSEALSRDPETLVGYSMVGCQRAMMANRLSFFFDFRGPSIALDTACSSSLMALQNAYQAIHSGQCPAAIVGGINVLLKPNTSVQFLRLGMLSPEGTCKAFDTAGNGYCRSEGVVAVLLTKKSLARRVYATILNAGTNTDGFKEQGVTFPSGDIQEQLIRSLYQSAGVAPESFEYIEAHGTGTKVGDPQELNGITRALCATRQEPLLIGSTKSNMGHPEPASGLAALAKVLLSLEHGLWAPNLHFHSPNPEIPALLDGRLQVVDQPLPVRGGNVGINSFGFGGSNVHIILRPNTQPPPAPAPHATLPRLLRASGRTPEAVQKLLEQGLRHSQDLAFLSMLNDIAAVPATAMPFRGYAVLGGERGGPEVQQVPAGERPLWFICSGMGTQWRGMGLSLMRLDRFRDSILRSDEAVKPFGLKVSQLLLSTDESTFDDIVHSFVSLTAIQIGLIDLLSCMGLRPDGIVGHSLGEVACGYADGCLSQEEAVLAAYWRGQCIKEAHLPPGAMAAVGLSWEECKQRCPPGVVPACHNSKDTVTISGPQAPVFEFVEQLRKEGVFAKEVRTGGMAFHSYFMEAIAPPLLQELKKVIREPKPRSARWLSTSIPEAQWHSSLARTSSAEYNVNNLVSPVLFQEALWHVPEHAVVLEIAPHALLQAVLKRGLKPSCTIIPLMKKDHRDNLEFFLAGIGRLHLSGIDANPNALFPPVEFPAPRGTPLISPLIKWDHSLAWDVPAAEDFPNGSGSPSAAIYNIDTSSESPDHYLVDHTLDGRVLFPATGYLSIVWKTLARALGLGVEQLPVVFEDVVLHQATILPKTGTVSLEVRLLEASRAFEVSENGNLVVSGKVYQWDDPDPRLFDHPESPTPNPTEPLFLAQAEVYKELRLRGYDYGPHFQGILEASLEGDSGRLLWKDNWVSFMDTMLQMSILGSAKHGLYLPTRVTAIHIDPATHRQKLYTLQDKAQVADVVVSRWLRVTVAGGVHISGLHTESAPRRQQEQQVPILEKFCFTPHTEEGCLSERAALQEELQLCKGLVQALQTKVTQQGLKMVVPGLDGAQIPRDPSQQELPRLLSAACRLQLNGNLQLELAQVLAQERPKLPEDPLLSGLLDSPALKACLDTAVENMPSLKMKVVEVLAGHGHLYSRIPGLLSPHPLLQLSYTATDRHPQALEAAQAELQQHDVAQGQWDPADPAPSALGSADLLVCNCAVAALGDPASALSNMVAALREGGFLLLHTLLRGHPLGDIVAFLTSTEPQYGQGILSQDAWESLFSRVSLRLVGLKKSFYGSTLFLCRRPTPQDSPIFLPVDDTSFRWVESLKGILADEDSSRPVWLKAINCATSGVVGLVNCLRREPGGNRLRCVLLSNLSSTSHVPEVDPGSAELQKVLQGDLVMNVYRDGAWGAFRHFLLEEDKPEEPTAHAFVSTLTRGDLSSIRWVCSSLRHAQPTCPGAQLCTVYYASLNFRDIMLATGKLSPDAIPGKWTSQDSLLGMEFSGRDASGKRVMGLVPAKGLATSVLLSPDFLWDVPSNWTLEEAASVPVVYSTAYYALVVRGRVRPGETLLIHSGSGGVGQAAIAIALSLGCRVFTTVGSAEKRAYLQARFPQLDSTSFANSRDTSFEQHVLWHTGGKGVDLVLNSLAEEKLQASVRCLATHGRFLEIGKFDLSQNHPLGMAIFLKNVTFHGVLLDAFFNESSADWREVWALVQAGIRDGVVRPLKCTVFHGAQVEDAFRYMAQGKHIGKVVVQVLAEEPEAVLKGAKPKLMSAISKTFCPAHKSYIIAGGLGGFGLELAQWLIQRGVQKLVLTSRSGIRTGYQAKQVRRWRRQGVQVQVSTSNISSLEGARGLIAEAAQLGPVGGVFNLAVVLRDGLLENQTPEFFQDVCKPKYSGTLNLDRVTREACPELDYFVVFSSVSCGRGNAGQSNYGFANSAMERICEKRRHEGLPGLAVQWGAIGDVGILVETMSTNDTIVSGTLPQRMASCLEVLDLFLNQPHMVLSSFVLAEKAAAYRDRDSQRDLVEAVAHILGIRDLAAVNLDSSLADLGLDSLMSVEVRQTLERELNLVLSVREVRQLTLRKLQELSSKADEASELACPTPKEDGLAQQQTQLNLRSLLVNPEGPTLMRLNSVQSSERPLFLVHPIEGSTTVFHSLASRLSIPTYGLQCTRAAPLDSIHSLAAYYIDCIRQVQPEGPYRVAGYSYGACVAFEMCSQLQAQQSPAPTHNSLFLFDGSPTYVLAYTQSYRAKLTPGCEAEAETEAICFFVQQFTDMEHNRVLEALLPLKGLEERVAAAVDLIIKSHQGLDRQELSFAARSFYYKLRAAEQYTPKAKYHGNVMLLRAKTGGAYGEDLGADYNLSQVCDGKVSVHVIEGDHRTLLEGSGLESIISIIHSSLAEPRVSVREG

molecular target: Fatty acid synthase (Homo sapiens, UniProt P49327)

Row | SMILES | pIC50
1 | CC(=O)N1CCC2(CC1)N=C(c1ccc(-c3ccc4c(cnn4C)c3)cc1)N(C[C@@H]1CCN(C(=O)C3CC3)C1)C2=O | 6.70
2 | Cc1cc(C2=NC3(CC3)C(=O)N2C[C@@H]2CCN(C(=O)C3CC3)C2)ccc1-c1ccc2c(cnn2C)c1 | 6.52
3 | Cn1ncc2cc(-c3ccc(C4=NC5(CC5)C(=O)N4C[C@@H]4CCCN(C(=O)C5CC5)C4)cc3)ccc21 | < 5.00
4 | O=C(C1CC1)N1CC[C@@H](CN2C(=O)C3(CC3)N=C2c2ccc(-c3ccc4[nH]ncc4c3)cc2)C1 | 7.49
5 | O=C(C1CC1)N1CC[C@@H](CN2C(=O)C3(CC3)N=C2c2ccc(-c3ccc4ncccc4c3)cc2)C1 | 6.80
6 | Cn1ncc2cc(-c3ccc(C4=NC5(CC5)C(=O)N4C[C@@H]4CCN(C(=O)C5CC5)C4)c(F)c3)ccc21 | 7.66
7 | O=C(C1CC1)N1CC[C@@H](CN2C(=O)C3(CC3)N=C2c2ccc(-c3ccc4occc4c3)cc2)C1 | 7.34

Further lines, results first:

Row | pIC50 | SMILES
8 | 5.07 | Cn1ncc2cc(-c3ccc(C4=NC5(CC5)C(=O)N4C[C@H]4CCCN(C(=O)C5CC5)C4)cc3)ccc21
9 | 7.29 | Cc1cc(-c2ccc3c(cnn3C)c2)ccc1C1=NC2(CC2)C(=O)N1C[C@@H]1CCN(C(=O)C2CC2)C1
10 | 7.16 | Cn1ncc2cc(-c3ccc(C4=NC5(CC5)C(=O)N4CC4CN(C(=O)C5CC5)C4)cc3)ccc21
11 | 6.92 | O=C(C1CC1)N1CC[C@@H](CN2C(=O)C3(CC3)N=C2c2ccc(-c3cnc4ccccc4c3)cc2)C1
12 | 7.70 | O=C(C1CC1)N1CC[C@@H](CN2C(=O)C3(CC3)N=C2c2ccc(-c3ccc4cnccc4c3)cc2)C1
